Chains of the proteins cited; added tags and fusions are not shown. Residues count along the entry.
UniProt P29274, 1-317 A54L/T88A/R107A/K122A/L202A/L235A/V239A/S277A: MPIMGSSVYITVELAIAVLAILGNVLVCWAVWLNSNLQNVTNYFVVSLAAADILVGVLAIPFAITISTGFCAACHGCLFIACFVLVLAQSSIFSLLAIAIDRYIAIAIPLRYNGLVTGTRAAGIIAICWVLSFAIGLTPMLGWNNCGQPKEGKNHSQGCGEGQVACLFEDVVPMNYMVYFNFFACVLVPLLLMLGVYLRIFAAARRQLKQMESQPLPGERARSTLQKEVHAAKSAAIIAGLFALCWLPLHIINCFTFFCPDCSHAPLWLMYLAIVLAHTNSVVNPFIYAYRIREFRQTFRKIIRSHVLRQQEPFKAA

The first assay deals with human adenosine A2A receptor (Homo sapiens, UniProt P29274). To be noted: ligand efficiency as defined in ref 17.
Turning to `Nc1nnc(-c2ccccc2)c(-c2ccccc2)n1` [Compound 4a, 5,6-Diphenyl-1,2,4-triazin-3-amine], the “LE (ligand efficiency)” value is on record as 0.50.

Consider `Cc1cc(-c2nnc(N)nc2-c2cccc(F)c2)cc(C)n1` [Compound 4j], for which the “LE (ligand efficiency)” value was found to be 0.49. With `Nc1nnc(-c2cccc(Cl)c2)c(-c2ccccc2)n1` [Compound 4b, 6-(3-Chlorophenyl)-5-phenyl-1,2,4-triazin-3-amine], the “LE (ligand efficiency)” value is listed as 0.50. Same read-out and setting: then `Cc1cc(-c2nnc(N)nc2-c2ccccc2)cc(C(F)(F)F)n1` [Compound 4k, 6-[2-Methyl-6-(trifluoromethyl)pyridin-4-yl]-5-phenyl-1,2,4-triazin-3-amine], with 0.48. On to `Cc1cc(-c2nnc(N)nc2-c2ccccc2)cc(C)c1O` [Compound 4f, 4-(3-amino-5-phenyl-1,2,4-triazin-6-yl)-2,6-dimethylphenol], for which the “LE (ligand efficiency)” value is recorded as 0.52. In the case of `Nc1nnc(-c2cc(Cl)cc(Cl)c2)c(-c2ccccc2)n1` [Compound 4c, 6-(3,5-Dichlorophenyl)-5-phenyl-1,2,4-triazin-3-amine], the “LE (ligand efficiency)” value is listed as 0.55.

Another assay concerns the target adenosine A2A–StaR (Homo sapiens, UniProt P29274, A54L/K122A/L202A/L235A/R107A/S277A/T88A/V239A). The settings on record: Biacore T200, 25 °C.
Consider `Cc1cc(-c2nnc(N)nc2-c2ccc(F)cc2)cc(C(F)(F)F)n1` [Compound 4l], for which the “SPR ka (on rate)” value is given as 1.55 × 10^6 and the “SPR kd (off rate)” value is listed as 4.09 × 10^–2.

In the case of `Cc1cc(-c2nnc(N)nc2-c2cc(F)cc(F)c2)cc(C)n1` [Compound 4i], the “SPR ka (on rate)” value was 9.44 × 10^6 and the “SPR kd (off rate)” value is 8.84 × 10^–2.

The values are drawn from paper PMC3308197 (2012).
